Laboratory results taken from patent US20030022253A1, “Method for identifying, isolating and producing neuroactive binding agents and binding agents derived thereby” (Nyxis Neurotherapies, Inc., priority 2001, published 2003).

Experiments:
[1] = delivered intravenously or trans-nasally
[2] = up to 500 mg/Kg of peptide delivered IV

threonine-proline-proline-threonine [NT-13]
crossing of the blood brain barrier [1]: cross the blood brain barrier
side effects [2]: no obvious side effects
